Bioassay records: PubChem, National Center for Advancing Translational Sciences (NCATS)
Shown are actives, neighbours in structure and some others; about 16% of the full set was active somewhere.
miR-21 reporter: raises the signal of a miR-21 reporter | HeLa miR-21 FLuc reporter, luciferase, 48 h | Potency, µM (doses to about 38.3 µM) | 340,000 tested, under 10 active | AID 2288; active = well fitted rising curve with a large enough effect; inconclusive = small, poorly fitted or top-dose-only effect; inactive = no such curve, though single readings can be large or run the other way;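 also: miR-21 action dims this reporter so a rising signal means less miR-21 action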
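Using DMEM plus 10% FBS, HeLa miR-21-FLuc cells are incubated with test compounds (final up to about 40uM) for 48 hours; firefly luciferase signal is then imaged following reagent-mediated lysis.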
TDP1 cell noCPT: qHTS for Inhibitors of human tyrosyl-DNA phosphodiesterase 1 (TDP1): qHTS in cells in absence of CPT. DT40 Tdp1-/- hTDP1 cells, no CPT, ATP luminescence, 48 h. Potency, µM (highest dose often 46.2 µM), actives largely listed as inhibitors. actives 15% (n = 420,000). AID 686978, 2013; note: nearly all actives have a fitted effect of over 55% in size
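Luminescent ATP content (CellTiter-Glo) served as the growth readout. Knockout chicken DT40 cells expressing human TDP1 were exposed to compounds without camptothecin for a minimum 48 hr at 37 °C.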
DT40 TDP1 CPT: growth inhibition of DT40 Tdp1-/-;hTDP1 cells with camptothecin (screen for TDP1 inhibitors); Potency, µM (series often up to 46.2 µM), actives largely listed as inhibitors; chicken DT40 Tdp1-/-;hTDP1 cells + 20 nM CPT, ATP luminescence, 48 h; actives 12% (n = 420,000); note: nearly all actives have a fitted effect of over 55% in size
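Chicken DT40 Tdp1-/- cells complemented with human TDP1, 400 cells/well, exposed to compounds plus 20 nM camptothecin for at least 48 h at 37 C; viability read as ATP content by CellTiter-Glo luminescence.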
uPA generation: cell surface uPA generation inhibition; cell surface uPA generation assay, qHTS; actives 0.31% (n = 330,000); Potency, µM (top dose mostly 38.3 µM), hits mostly inhibitors; active = well fitted inhibition curve with a large enough effect; inconclusive = small, poorly fitted or top-dose-only effect; inactive = no such curve, though single readings can be large or run the other way; tested in mouse RAW 264.7 cells; note: nearly all actives have a fitted effect of over 55% in size
TDP1 inh: blocks human tyrosyl-DNA phosphodiesterase 1; Q9NUW8; recombinant TDP1, AlphaScreen DNA substrate cleavage; Potency, µM (titrated, usually from 130 µM), actives largely listed as inhibitors; actives 0.28% (n = 350,000); AID 485290; note: nearly all actives have a fitted effect of over 40% in size
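E. coli-derived human Tdp1, 1 nM final. Cpd preinc 15 min RT; substrate 15 nM final, 5 min RT; AS bead mix 10 ug/ml final, 10 min RT. Signal loss = tyrosine-FITC cleavage. No-enzyme wells = max signal.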
Of the large screens only hits and unclear results are named; the others gave an inactive call; ! = a repeat was not active. Unless noted, calls come from the whole dose curve; as a rule, active = well fitted curve in the direction sought with a large enough effect; inconclusive = small, poorly fitted or top-dose-only effect, or another doubt; inactive = no such curve, though single readings can be large; an effect the other way counts as inactive or inconclusive.

CCCn1c(=N)c(C(=O)NCC2CCCO2)cc2c(=O)n3cc(C)ccc3nc21 (stereo not drawn)	none (no result: uPA generation, TDP1 inh)
OC(COc1cccc2ccccc12)CN1CCN(c2ccccc2)CC1 (stereo not drawn)	TDP1 cell noCPT inconclusive, DT40 TDP1 CPT 18.4µM
OC(COc1cccc2ccccc12)CN1CCOCC1 (stereo not drawn)	none (no result: miR-21 reporter, TDP1 inh)
Cc1oc(-c2ccccc2F)nc1Cn1c(SCc2cccc(C(F)(F)F)c2)nc2ccncc21	TDP1 cell noCPT inconclusive, DT40 TDP1 CPT inconclusive (no result: uPA generation)
COc1ccc(CSc2nc3ccncc3n2Cc2nc(-c3ccc(OC)c(OC)c3)oc2C)cc1	TDP1 cell noCPT inconclusive, DT40 TDP1 CPT 25.9µM (no result: uPA generation)
Cc1ccc(CSc2nc3ccncc3n2Cc2nc(-c3ccccc3C)oc2C)cc1	TDP1 cell noCPT inconclusive, DT40 TDP1 CPT inconclusive (no result: uPA generation)
COc1ccc(-c2nc(Cn3c(SCc4cccc(Cl)c4)nc4ccncc43)c(C)o2)cc1	TDP1 cell noCPT inconclusive, DT40 TDP1 CPT 23.1µM (no result: uPA generation)
Cc1oc(-c2cccc(Cl)c2)nc1Cn1c(SCc2ccccc2F)nc2ccncc21	TDP1 cell noCPT 23.1µM, DT40 TDP1 CPT 16.4µM (no result: uPA generation)
CCOC(=O)Cc1csc(SC(C)C(=O)Nc2ccc(NC(C)=O)cc2)n1 (stereo not drawn)	none
COc1ccc(C(CNC(=O)COc2ccc(-c3ccccc3)cc2)N2CCOCC2)cc1 (stereo not drawn)	miR-21 reporter inconclusive, TDP1 cell noCPT inconclusive, DT40 TDP1 CPT inconclusive
CCC(C)C(=O)OC1CCC=C2C=CC(C)C(CCC3CC(O)CC(=O)O3)C21 (stereo not drawn)	TDP1 cell noCPT 23.1µM, DT40 TDP1 CPT inconclusive (no result: miR-21 reporter, TDP1 inh)
CC[C@H](C)C(=O)O[C@H]1CCC=C2C=C[C@H](C)[C@H](CC[C@@H]3C[C@@H](O)CC(=O)O3)[C@H]21	TDP1 cell noCPT 14.6µM!, DT40 TDP1 CPT inconclusive, uPA generation 1.26µM
CC[C@H](C)C(=O)O[C@H]1CCC=C2C=C[C@H](C)[C@H](CC[C@@H]3C[C@H](O)CC(=O)O3)[C@H]21	TDP1 cell noCPT 13.3µM, DT40 TDP1 CPT 18.8µM (no result: miR-21 reporter, uPA generation)
CCN(CC)C(=O)CSc1nc(O)cc(=O)n1C	none
CC1(C)Cc2ccccc2-c2nc3ccccc3c(=O)n21	TDP1 cell noCPT 11.6µM, DT40 TDP1 CPT inconclusive
COc1ccccc1-c1nc2ccccc2c(=O)n1O	none (no result: TDP1 inh)
CC(C)[C@H](CO)Nc1nc(Nc2ccc(Cl)c(C(=O)O)c2)c2ncn(C(C)C)c2n1	none
C=CC(=O)Nc1cccc(Nc2nc(N[C@H]3CC[C@H](N(C)C)CC3)nc3c2ncn3C(C)C)c1	TDP1 cell noCPT 0.206µM, DT40 TDP1 CPT 0.146µM, uPA generation inconclusive (no result: miR-21 reporter, TDP1 inh)
COc1ccc(/C=C\C(=O)NCC(=O)N/N=C/c2cccc(OC)c2O)cc1	TDP1 cell noCPT 2.59µM, DT40 TDP1 CPT 5.8µM
COc1ccc(Br)cc1/C=N/NC(=O)CNC(=O)/C=C/c1ccccc1	TDP1 cell noCPT 13µM, DT40 TDP1 CPT 16.4µM
COc1cccc(/C=N/NC(=O)CNC(=O)/C=C\c2ccccc2)c1O	TDP1 cell noCPT 2.06µM, DT40 TDP1 CPT inconclusive, uPA generation inconclusive
COc1cccc(/C=N/NC(=O)CNC(=O)C(c2ccccc2)c2ccccc2)c1O	TDP1 cell noCPT 5.8µM, DT40 TDP1 CPT 7.31µM
COc1ccc(/C=C/C(=O)NCC(=O)N/N=C/c2cc(Br)ccc2OCc2ccccc2)cc1	TDP1 cell noCPT inconclusive, DT40 TDP1 CPT inconclusive
COc1ccccc1/C=C/C(=O)NCC(=O)N/N=C/c1ccccc1	none
CCCCCn1c(SCc2cccc(C)c2)nc2c1c(=O)[nH]c(=O)n2C	TDP1 cell noCPT inconclusive, DT40 TDP1 CPT inconclusive (no result: TDP1 inh)
COc1ccc(-c2nnc(SCC(=O)Nc3sc4c(c3C#N)CCCC4)n2-c2ccccc2)cc1	TDP1 cell noCPT inconclusive, DT40 TDP1 CPT inconclusive
CC(C)(C)c1ccc(S(=O)(=O)NC(=O)C2(C)CCN2C(=O)c2cccc3ccccc23)cc1 (stereo not drawn)	none (no result: miR-21 reporter, uPA generation, TDP1 inh)
Fc1ccc(-n2cc(CNCCc3cccnc3)c(-c3ccccc3Cl)n2)cc1	TDP1 cell noCPT 23.1µM, DT40 TDP1 CPT 14.6µM
COc1ccc2cnn(-c3ccc(C)cc3)c(=O)c2c1OC	TDP1 cell noCPT 20.6µM, DT40 TDP1 CPT 14.6µM
CCOc1c(Cl)cnn(-c2ccc(C)cc2)c1=O	TDP1 cell noCPT inconclusive
CNc1cnn(-c2ccccc2)c(=O)c1Cl	TDP1 cell noCPT inconclusive, DT40 TDP1 CPT inconclusive
CCOc1ccccc1OCCn1ncc2ccc(OC)c(OC)c2c1=O	none
COc1ccc2cnn(CCOc3cc(C)ccc3C(C)C)c(=O)c2c1OC	TDP1 cell noCPT 16.4µM, DT40 TDP1 CPT 16.4µM
COc1c(Cl)cnn(-c2ccc(C)cc2)c1=O	TDP1 cell noCPT 16.4µM, DT40 TDP1 CPT inconclusive
Cc1ccc(Sc2cnn(-c3ccccc3)c(=O)c2Cl)cc1	TDP1 cell noCPT 29.1µM, DT40 TDP1 CPT inconclusive
COc1ccc(Oc2c(Cl)cnn(-c3ccc(F)cc3)c2=O)cc1	TDP1 cell noCPT inconclusive, DT40 TDP1 CPT inconclusive
O=C(O)c1ccc(-n2ncc(Cl)c(Cl)c2=O)cc1	TDP1 cell noCPT 5.8µM, DT40 TDP1 CPT 6.51µM (no result: miR-21 reporter, uPA generation, TDP1 inh)
COc1ccc(Oc2c(Cl)cnn(-c3ccc(C)cc3)c2=O)cc1	TDP1 cell noCPT 25.9µM, DT40 TDP1 CPT inconclusive
CC(=O)N1[C@H](Cc2ccccc2)C=C[C@]1(C)C(=O)NCCN1CCOCC1	none
S=c1[nH]nc(SCc2ccccc2)c2[nH]cnc12	TDP1 cell noCPT 4.61µM, DT40 TDP1 CPT inconclusive (no result: miR-21 reporter, TDP1 inh)
Cc1sc2nc(CSCC(=O)N3CC(C)OC(C)C3)[nH]c(=O)c2c1C (stereo not drawn)	none (no result: miR-21 reporter)
O=C(NC(Cc1ccccc1)C(=O)O)c1cccnc1Cl (stereo not drawn)	none (no result: TDP1 inh)
COc1cccc(-c2cc(=O)c3cc(NC(C)=O)ccc3[nH]2)c1	TDP1 cell noCPT 16.4µM, DT40 TDP1 CPT inconclusive, uPA generation inconclusive
CC(=O)c1ccc(N2CCN(C(=O)CCS(=O)(=O)c3ccc4c(c3)NC(=O)CS4)CC2)cc1	TDP1 cell noCPT inconclusive, DT40 TDP1 CPT 18.4µM
Cc1ccc(C)c(N2CCN(C(=O)CCS(=O)(=O)c3ccc4c(c3)NC(=O)C(C)S4)CC2)c1 (stereo not drawn)	TDP1 cell noCPT 14.6µM, DT40 TDP1 CPT 23.1µM
CC1Cc2ccccc2N1C(=O)CCS(=O)(=O)c1ccc2c(c1)NC(=O)CS2 (stereo not drawn)	TDP1 cell noCPT inconclusive, DT40 TDP1 CPT 23.1µM
COc1ccc(N2CCN(C(=O)CCS(=O)(=O)c3ccc4c(c3)NC(=O)C(C)S4)CC2)cc1 (stereo not drawn)	TDP1 cell noCPT 10.3µM, DT40 TDP1 CPT inconclusive
C=CCn1ncc(OC)c(Cl)c1=O	none (no result: uPA generation)
CSc1nsc(SCC(=O)Nc2ccc(C(=O)O)cc2)n1	none (no result: TDP1 inh)
CCOC(=O)c1nn(-c2ccc(Br)cc2)cc1C(=O)c1cccc2ccccc12	TDP1 cell noCPT 16.4µM, DT40 TDP1 CPT 8.2µM (no result: uPA generation)
